In one data set the target is ACE2 (Homo sapiens, UniProt Q9BYF1). Nature of the data set: SPR analysis of affinity to ACE2 recombinant protein. Type of data set: binding. Particulars: steady-state affinity model (1:1), 0.024 to 50 μmol/L. On the technique in general: In SPR one partner is held on a chip, and binding of the other changes the refractive index at the surface.
Data set [1] is described as follows: LHQW components in human plasma after repeated oral dosing. Type of data set: in vivo. As to conditions: after repeated oral administration of LHQW capsule, semi-quantitative.

Chains of the proteins cited; added tags and fusions are not shown. Residues count along the entry.
UniProt Q9BYF1, 18-740: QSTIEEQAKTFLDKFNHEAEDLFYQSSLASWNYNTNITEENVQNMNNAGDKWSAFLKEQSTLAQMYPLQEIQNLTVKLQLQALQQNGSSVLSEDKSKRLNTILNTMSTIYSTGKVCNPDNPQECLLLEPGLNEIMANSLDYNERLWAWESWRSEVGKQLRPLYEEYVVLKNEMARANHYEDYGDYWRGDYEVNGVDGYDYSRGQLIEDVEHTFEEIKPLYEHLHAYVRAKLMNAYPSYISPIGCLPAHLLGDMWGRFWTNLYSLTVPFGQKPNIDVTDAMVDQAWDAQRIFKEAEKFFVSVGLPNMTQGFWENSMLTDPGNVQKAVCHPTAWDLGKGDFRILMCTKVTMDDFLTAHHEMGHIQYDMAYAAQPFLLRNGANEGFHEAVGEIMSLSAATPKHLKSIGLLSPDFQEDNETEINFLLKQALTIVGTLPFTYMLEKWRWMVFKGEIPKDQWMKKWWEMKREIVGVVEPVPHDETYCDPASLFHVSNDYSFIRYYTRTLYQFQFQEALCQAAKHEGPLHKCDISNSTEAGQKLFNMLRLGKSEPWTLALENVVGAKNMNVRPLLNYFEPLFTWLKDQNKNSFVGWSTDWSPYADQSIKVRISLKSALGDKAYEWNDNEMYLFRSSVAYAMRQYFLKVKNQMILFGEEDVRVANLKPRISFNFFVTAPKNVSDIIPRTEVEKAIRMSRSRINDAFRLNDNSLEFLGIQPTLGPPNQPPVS

What is called Kd is the constant that tells how readily two partners part at equilibrium.

Consider Forsythoside B [Forsythoside B (125)], for which, on ACE2, the Kd worked out at 61 µM.

Turning to forsythin, in data set [1], the “Human in vivo exposure (in words)” value is recorded as “higher human exposure”.

For the origin of these results see publication PMC7547831 (Acta Pharmaceutica Sinica. B, 2020).
